# AlphaSeq binding of Ab-14 heavy chain variants to a spike HR2 peptide

Target: peptide PDVDLGDISGINAS, taken from heptad repeat 2 (HR2) of SARS-CoV-2 spike.

Each scFv is VH, the linker GGGGSGGGGSGGGGS, VL, as in the parent Ab-14, and differs from it in the CDRs of the heavy chain only.
VH: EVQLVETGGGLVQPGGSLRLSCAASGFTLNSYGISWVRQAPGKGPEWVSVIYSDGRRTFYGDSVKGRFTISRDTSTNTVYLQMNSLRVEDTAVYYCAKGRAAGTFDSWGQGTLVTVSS
VL: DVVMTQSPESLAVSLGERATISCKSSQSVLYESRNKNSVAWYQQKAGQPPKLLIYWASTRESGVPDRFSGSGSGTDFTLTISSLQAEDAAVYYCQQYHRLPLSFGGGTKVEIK

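The parent was found by panning a naive human phage display library on the peptide. This is the validation round: designs drawn from the data on random variants, tested in the same kind of assay. Their group label is 14H_GP_HC (GP: Gaussian process model; HC: hill climbing; a sequence that several methods proposed may carry one label only). In AlphaSeq, yeast of one mating type display the scFv and yeast of the other type display the target. After mating in shaken culture at 30 °C for 16 h, diploids were selected and their barcode pairs sequenced. A regression on co-assayed BCL2-family reference pairs converts the normalised counts of each replicate to an apparent Kd. There are six technical replicates.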

Substitutions are numbered in sequence along the VH above, starting at 1 (not Kabat). Affinities are written as log10 Kd with Kd in nM; a lower number is a better binder. Replicates are averaged; those with no signal do not enter the mean. An entry "nd" has no value in the source: the pair was not observed among the diploids in that replicate. This suggests poor binding but is not conclusive.

changes	replicates, log10 nM	mean log10 Kd (nM)	empty controls
S31D/F59M/G61I/D106I	1.74 / 0.83 / 1.37 / 0.84 / 1.34 / 1.63	1.29	0 of 18
T28S/S31E/G61Q/G103V/S107Q	nd / nd / nd / nd / nd / nd	nd	0 of 18
T28F/S31D/G61I/R100T	1.18 / 0.41 / 0.90 / 0.91 / 1.09 / 1.44	0.99	1 of 18 (1.24)
G26H/G61I/A101I	-0.64 / -0.55 / -0.50 / -0.97 / -0.32 / -0.78	-0.63	0 of 18
G61T/R100M/A101L	nd / nd / nd / 1.18 / nd / nd	1.18	0 of 18
T28D/R100E/T104I/D106N	nd / nd / nd / nd / nd / nd	nd	0 of 18
N30E/S53A/S63H/D106E	nd / nd / nd / nd / nd / nd	nd	0 of 18
G61D/R100T/A101E	1.08 / 0.82 / 0.12 / 0.41 / 0.22 / 0.53	0.53	0 of 18
S31E/G103V/S107G	nd / nd / nd / nd / nd / nd	nd	0 of 18
T28Q/S31D/D106T	0.87 / nd / 2.01 / nd / 2.82 / 1.75	1.86	1 of 18 (0.85)
S31D/D106R/S107D	nd / nd / nd / nd / nd / nd	nd	0 of 18
T28Q/G103A	nd / nd / nd / nd / nd / 2.11	2.11	0 of 18
T28S/S31E/R100V/S107R	1.08 / 0.15 / 0.46 / 1.10 / 1.01 / 0.58	0.73	0 of 18
N30D/R100Y/A101L	1.41 / 2.37 / 1.71 / 1.38 / 2.14 / nd	1.80	1 of 18 (1.83)
S31E/S53A/S107M	0.39 / -0.32 / -0.48 / -0.65 / -0.36 / -0.18	-0.27	1 of 18 (1.28)
T28A/S31D/F59Y	0.80 / 0.44 / 0.33 / 0.27 / 0.07 / 0.42	0.39	1 of 18 (1.81)
S31Q/G61S/T104F/D106T	nd / 3.08 / nd / 4.32 / nd / 3.74	3.71	1 of 18 (2.19)
S31D/G61I/A101Q/D106I	nd / nd / nd / nd / nd / nd	nd	0 of 18
S31D/T58M/F59M/G61I	1.65 / 1.89 / 1.34 / 1.29 / 1.17 / 1.51	1.48	2 of 18 (3.46)
S31E/R100T/S107L	0.35 / 0.14 / -0.04 / -0.33 / 0.12 / 0.16	0.07	0 of 18
S31E/G61T/D106T	nd / nd / nd / nd / nd / nd	nd	0 of 18
T28R/S31E/S107L	1.50 / 0.62 / 0.51 / 0.34 / 0.82 / 0.88	0.78	0 of 18
S31E/R100E/S107N	1.64 / 0.93 / 1.15 / 0.89 / 0.88 / 0.99	1.08	0 of 18
S31Q/R56Q/G61S/G103V	nd / nd / nd / nd / nd / nd	nd	0 of 18
T28S/S31D/G103D	nd / nd / nd / nd / nd / nd	nd	1 of 18 (2.61)
G26W/S31D/G61I	nd / nd / nd / nd / nd / nd	nd	0 of 18
S31E/S63D/A101F	0.32 / 0.61 / 0.94 / -0.17 / 0.16 / 0.55	0.40	0 of 18
S31D/F59W/G61I/D106I	nd / nd / nd / nd / nd / nd	nd	0 of 18
S53A/R100T/S107Y	0.22 / 1.46 / 0.33 / 0.91 / nd / 0.53	0.69	0 of 18
S31D/F59W/A101Y	1.65 / 0.90 / 1.09 / 0.67 / 0.37 / 1.52	1.03	0 of 18
S31Q/G61V/A101L/S107T	1.36 / 1.55 / 1.16 / 1.65 / 1.61 / 1.01	1.39	1 of 18 (2.37)
G26F/N30E/S53A/D106K	nd / nd / nd / nd / nd / nd	nd	0 of 18
S31E/R56M/G61S/T104R	nd / nd / nd / nd / nd / nd	nd	3 of 18 (1.72)
S31Q/G61H/A101L/S107T	0.72 / 0.65 / 0.72 / 0.60 / 0.10 / 0.27	0.51	0 of 18
S31E/G61S/R100Q/A101E/S107N	nd / nd / nd / nd / nd / nd	nd	0 of 18
G26N/N30E/S53A/D106T	nd / nd / nd / nd / nd / nd	nd	0 of 18
T28Q/S31D/A101K/D106I	nd / 1.87 / nd / nd / 1.06 / 2.38	1.77	0 of 18
N30D/R100H	nd / 1.27 / 1.68 / 1.78 / 1.92 / nd	1.66	0 of 18
S31E/R56H/G61S/R100Q	0.35 / 0.16 / 0.21 / 0.05 / 0.11 / 0.16	0.17	5 of 18 (2.90)
G61S/R100H/S107K	1.85 / 0.58 / 0.39 / 0.22 / 1.13 / 0.69	0.81	0 of 18
S31E/D106A/S107Q	nd / nd / nd / nd / nd / nd	nd	0 of 18
F27N/S31E/G61H/A101T	0.47 / 0.09 / 0.15 / 0.20 / 0.09 / 0.41	0.23	0 of 18
S31D/R100K/D106V	0.26 / -0.24 / 0.37 / 0.73 / 0.29 / -0.01	0.23	0 of 18
G61I/S63D/R100E/D106K	nd / 1.22 / nd / 1.57 / 2.50 / 1.44	1.68	0 of 18
S31Q/G61A/G103V/S107T	nd / nd / nd / nd / nd / nd	nd	0 of 18
F27N/S31D/G61I	0.81 / 1.70 / nd / nd / 2.22 / nd	1.58	0 of 18
T28Q/G61S/R100H/A101E	0.20 / -0.11 / -0.05 / -0.13 / 0.03 / -0.09	-0.02	0 of 18
T28A/S31Q/G61S/A101Q	nd / nd / nd / nd / nd / nd	nd	0 of 18
S31D/R56E/G61C	1.47 / 0.71 / nd / nd / 1.18 / nd	1.12	0 of 18
T28Q/R100V	nd / nd / 0.74 / nd / nd / nd	0.74	0 of 18
G61S/R100Q/A101E/D106F	nd / nd / nd / nd / nd / nd	nd	0 of 18

The opening 5 entries, copied out:

changes,"replicates, log10 nM",mean log10 Kd (nM),empty controls
S31D/F59M/G61I/D106I,1.74 / 0.83 / 1.37 / 0.84 / 1.34 / 1.63,1.29,0 of 18
T28S/S31E/G61Q/G103V/S107Q,nd / nd / nd / nd / nd / nd,nd,0 of 18
T28F/S31D/G61I/R100T,1.18 / 0.41 / 0.90 / 0.91 / 1.09 / 1.44,0.99,1 of 18 (1.24)
G26H/G61I/A101I,-0.64 / -0.55 / -0.50 / -0.97 / -0.32 / -0.78,-0.63,0 of 18
G61T/R100M/A101L,nd / nd / nd / 1.18 / nd / nd,1.18,0 of 18

Values of this round are not directly comparable with the first-round values of the same sequences. Empty control strains, which show no peptide, gave a signal in 1% of pairings with all heavy chain designs; the median was 2.08 and 95% of these signals were weaker than 0.84. No background was subtracted. Also given: how often the same scFv was detected with the empty control strains, with their mean in brackets. The authors' rule: three or more of the six replicates give a measured affinity, fewer mean a poor binder. The parent sequence was in this pool as ten entries: three were never detected, three once, and four in most replicates, with averages from 0.34 to 2.37.

Source: Li et al. 2023 (doi:10.1038/s41467-023-39022-2), MIT Lincoln Laboratory and A-Alpha Bio; data file from the FLAb repository.